## Binding of CDR-mutated scFvs to a peptide of the spike HR2 region

From the AlphaSeq antibody data of Engelhart et al. 2022 (doi:10.1038/s41597-022-01779-4), copy in the FLAb collection.

Target peptide (SARS-CoV-2 spike, HR2 region): PDVDLGDISGINAS

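AAYL50 was designed without a model: most single CDR substitutions and a random sample of double and triple ones. In AlphaSeq, yeast of one mating type display the scFv and yeast of the other type display the target. Pairs that bind mate more often; barcode pairs of the diploids are counted by sequencing. A regression on co-assayed BCL2-family reference pairs converts the normalised counts of each replicate to an apparent Kd. Each pool was mated in three replicate cultures.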

Parent scFv Ab-14: VH joined to VL by a (GGGGS)3 linker. Changes lie in the light chain CDRs alone.
VH: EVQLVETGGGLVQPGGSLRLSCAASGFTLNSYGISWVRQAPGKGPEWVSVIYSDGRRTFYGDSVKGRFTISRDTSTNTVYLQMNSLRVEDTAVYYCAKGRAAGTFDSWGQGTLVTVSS
VL: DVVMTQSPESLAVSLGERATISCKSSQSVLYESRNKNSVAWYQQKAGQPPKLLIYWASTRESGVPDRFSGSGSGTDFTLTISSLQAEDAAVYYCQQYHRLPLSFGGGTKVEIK

Each variant is given by its three light chain CDRs, as the data file delimits them; those of the parent are KSSQSVLYESRNKNSVA, WASTRES, QQYHRLPLS. Affinities are written as log10 Kd with Kd in nM; a lower number is a better binder. Replicates are averaged; those with no signal do not enter the mean. An entry "ND" has no value in the source: the pair was not observed among the diploids in that replicate. This suggests poor binding but is not conclusive. Nonspecific signal, from three strains lacking the peptide, appeared in 18% of pairings of library AAYL50, centred on 4.19 (5% of these signals below 2.99); values are not corrected for it. Also given: how often the same scFv was detected with the empty control strains, with their mean in brackets.

CDR-L1	CDR-L2	CDR-L3	log10 Kd (nM) by replicate	mean, log10 nM	empty controls
KSSQSVLHESQNKNSVA	WASTRES	QQYHGLPLS	1.74 / 1.69 / 1.82	1.75	2 of 9 (4.50)
KSLQSVLYESRNKNSVA	WASTRES	QQYHRIPLS	2.02 / 2.23 / 2.55	2.27	1 of 9 (5.85)
KSSQSILYESRNKNSVA	WASTRES	QQQHRNPLS	ND / ND / 3.97	3.97	5 of 9 (4.68)
KSSQSTLYESRNKNSVA	MASTRES	QQYHRLPCS	ND / 3.97 / 5.09	4.53	3 of 9 (4.93)
KSSQSVLYESRAKNSVA	WASTRES	QQYHRQILS	ND / ND / 4.83	4.83	0 of 9
KSEQHVLYESRNKISVA	WASTRES	QQYHRLPLS	ND / ND / ND	ND	0 of 9
NSSCIVLYESRNKNSVA	WASTRES	QQYHRLPLS	5.02 / ND / 5.12	5.07	6 of 9 (4.66)
KSSQSVLYESRNKNVVA	WASTRQS	QQYHRLPLS	ND / 4.29 / 4.81	4.55	2 of 9 (4.19)
KSSQHVLYESRNKNAVA	WASTRES	QQYHRAPLS	1.81 / 1.88 / 2.06	1.92	4 of 9 (4.15)
KSSQSVLYEWRKKNSVA	WASTRES	QQYHRLPLS	ND / ND / ND	ND	0 of 9
KSSQSVLYEHRLKNSVA	WASTRES	QQYLRLPLS	ND / ND / ND	ND	0 of 9
KSSQSVLYSSRNKNSRA	WASTRES	QQYHRLPRS	4.19 / 4.41 / 3.17	3.93	4 of 9 (4.54)
KSSQSVYYESRTKNSVA	WASTRES	QQYHRLPLL	1.65 / 1.55 / 1.24	1.48	0 of 9
KSSQSVLMVSRNKNGVA	WASTRES	QQYHRLPLS	ND / ND / ND	ND	0 of 9
KSSQSVLYESRNKNSVA	EASKRES	QQYHVLPLS	0.51 / 0.68 / 0.70	0.63	0 of 9
KSSQSFLYESRNKNSVA	WHSTRES	QQYHRNPLS	ND / 3.43 / ND	3.43	1 of 9 (4.45)
KSSQSVLYESRNKHSVA	WAFTRES	QQYHRLPLP	3.00 / 3.05 / 3.70	3.25	3 of 9 (4.17)
KSSESVLYESRNKNSVA	WAATRES	QQYIRLPLS	1.84 / 1.70 / 2.18	1.91	0 of 9
KSSQSVLYESRNKNSVA	WMSYRES	QQYKRLPLS	3.91 / 2.26 / 2.90	3.02	4 of 9 (4.07)
KSSQSVLYESRNKNSVA	WASTRES	QQYHILPMG	ND / ND / ND	ND	1 of 9 (3.14)
KSSQSVLYESRNKLSVI	WASTRES	QQYHRLPLS	ND / ND / ND	ND	1 of 9 (3.05)
KSSQSVLEETRNKNSVA	WASTRES	QQYCRLPLS	1.59 / 1.60 / 1.52	1.57	3 of 9 (4.36)
KSSQSVDYESVNKNSVA	WASTRSS	QQYHRLPLS	0.69 / 0.96 / 0.99	0.88	4 of 9 (4.21)
KSSQSVLYESPNKNEVA	WASTRES	QQYHRLPLR	2.97 / ND / ND	2.97	0 of 9
KSSQSVLYESRCKNSVA	WASRREP	QQYHRLPLS	2.12 / 2.06 / 2.28	2.15	4 of 9 (4.54)
KSSQSVLYESINKNSVA	WARTRWS	QQYHRLPLS	2.20 / 1.39 / 2.20	1.93	0 of 9
KSSQSVQYRSRNKNSVA	WASTRES	QQYHRLYLS	1.87 / 2.04 / 1.73	1.88	0 of 9
KSSQSVLYESRNKNSVA	WASTYEN	QRYHRLPLS	ND / ND / ND	ND	2 of 9 (4.55)
KSSQSVLYESRNKNSVA	WASTAES	QQYHRLTLS	4.13 / 3.90 / ND	4.01	1 of 9 (4.14)
KSSQSVLYESRNKNSVA	WASTRES	WCYHRLTLS	1.50 / 1.43 / 1.72	1.55	3 of 9 (3.92)
KSSQSVLYESRNKNSWA	WASTRGS	WQYHRLPLS	ND / ND / ND	ND	0 of 9
KSMQSVSYESRNKNSVA	WASTRES	QQYHRLPHS	ND / ND / ND	ND	1 of 9 (3.77)
KSSQSVLYESRNKTSVA	WASTRES	QQYSRLPAS	ND / ND / ND	ND	0 of 9
KSSQSVLYYSRNKNSVA	WASTRES	QQYTRLPLG	ND / ND / ND	ND	2 of 9 (3.35)
KSSQSVLYESRNKNSVA	WASPRES	QQYYRLPRS	5.44 / ND / ND	5.44	0 of 9
KSSSSVLYESRNKNSVA	WASMRED	QQYHRLPLS	3.12 / 3.57 / ND	3.34	1 of 9 (2.93)
KSSQYVLYEMRNCNSVA	WASTRES	QQYHRLPLS	ND / ND / ND	ND	0 of 9
KNSQSVLWESRNKNSVL	WASTRES	QQYHRLPLS	ND / ND / ND	ND	2 of 9 (4.27)
KSSQSVLYESRNKFSYA	WASTRES	QQYHRLPAS	ND / ND / ND	ND	0 of 9
KSSQSSLYESRNKNPVA	WAVTRES	QQYHRLPLS	4.15 / ND / ND	4.15	1 of 9 (1.76)
KCSQSVLYESGNKNSVA	WASTRES	QQYHRLPCS	ND / ND / 3.69	3.69	2 of 9 (3.29)
KSHQSVLYESRNKNSVA	WASTRES	QQYARLPLS	0.35 / 0.83 / 0.72	0.63	9 of 9 (5.04)
KSSCSVLYESQNKNSVA	WASTRES	QQYHRLPLS	0.89 / 1.05 / 1.21	1.05	4 of 9 (4.07)
KSSQSVLYESRNKNCVA	WASTRES	QQYHRLPLS	2.64 / 2.52 / 2.49	2.55	1 of 9 (3.81)
KSSQSVLYESRSRISVA	WASTRES	QQYHRLPLS	3.87 / 2.58 / 3.11	3.19	2 of 9 (4.69)
KSSQSVLYESWNKNSVA	WASTMES	QQYHPLPLS	ND / ND / ND	ND	2 of 9 (3.81)
KSSQSVLYENRNFNSAA	WASTRES	QQYHRLPLS	4.07 / 2.79 / ND	3.43	3 of 9 (4.69)
KSRQSVLYESRNKNSVA	WASTRES	QQYHRLPLS	0.93 / 1.36 / 1.31	1.20	2 of 9 (3.88)
KSSQSVLYESRNKNSVA	WASTRES	QQYHRGPLS	1.25 / 1.14 / 1.47	1.28	0 of 9
KSMQSVLYESRNKNSVA	WASTRES	QQYHRAPLS	0.74 / 0.90 / 0.79	0.81	4 of 9 (4.73)
KSLQTVLYESRNKNSVA	WASTRES	QQYHRLPLN	ND / 2.50 / 2.56	2.53	1 of 9 (3.74)

The closing 8 entries, repeated:

CDR-L1	CDR-L2	CDR-L3	log10 Kd (nM) by replicate	mean, log10 nM	empty controls
KSSQSVLYESRNKNCVA	WASTRES	QQYHRLPLS	2.64 / 2.52 / 2.49	2.55	1 of 9 (3.81)
KSSQSVLYESRSRISVA	WASTRES	QQYHRLPLS	3.87 / 2.58 / 3.11	3.19	2 of 9 (4.69)
KSSQSVLYESWNKNSVA	WASTMES	QQYHPLPLS	ND / ND / ND	ND	2 of 9 (3.81)
KSSQSVLYENRNFNSAA	WASTRES	QQYHRLPLS	4.07 / 2.79 / ND	3.43	3 of 9 (4.69)
KSRQSVLYESRNKNSVA	WASTRES	QQYHRLPLS	0.93 / 1.36 / 1.31	1.20	2 of 9 (3.88)
KSSQSVLYESRNKNSVA	WASTRES	QQYHRGPLS	1.25 / 1.14 / 1.47	1.28	0 of 9
KSMQSVLYESRNKNSVA	WASTRES	QQYHRAPLS	0.74 / 0.90 / 0.79	0.81	4 of 9 (4.73)
KSLQTVLYESRNKNSVA	WASTRES	QQYHRLPLN	ND / 2.50 / 2.56	2.53	1 of 9 (3.74)

In this assay the parent's reference entry averaged 0.65; its copy inside this library read 1.68.